Like-named read-outs stand apart in the source and are kept apart here.
Target: Kv1.3 (L929 cells stably expressing mKv1.3 or activated human T cells) (Mus musculus, UniProt P16390)
Assay: Kv1.3 current blockade, whole-cell patch-clamp
Details: read-out: EC50 (nM) blockade, bounds given in uM
[1] = Table 8, compounds of formula I

The chains behind the UniProt entries cited, without tags or fusion partners.
UniProt P16390, whole entry: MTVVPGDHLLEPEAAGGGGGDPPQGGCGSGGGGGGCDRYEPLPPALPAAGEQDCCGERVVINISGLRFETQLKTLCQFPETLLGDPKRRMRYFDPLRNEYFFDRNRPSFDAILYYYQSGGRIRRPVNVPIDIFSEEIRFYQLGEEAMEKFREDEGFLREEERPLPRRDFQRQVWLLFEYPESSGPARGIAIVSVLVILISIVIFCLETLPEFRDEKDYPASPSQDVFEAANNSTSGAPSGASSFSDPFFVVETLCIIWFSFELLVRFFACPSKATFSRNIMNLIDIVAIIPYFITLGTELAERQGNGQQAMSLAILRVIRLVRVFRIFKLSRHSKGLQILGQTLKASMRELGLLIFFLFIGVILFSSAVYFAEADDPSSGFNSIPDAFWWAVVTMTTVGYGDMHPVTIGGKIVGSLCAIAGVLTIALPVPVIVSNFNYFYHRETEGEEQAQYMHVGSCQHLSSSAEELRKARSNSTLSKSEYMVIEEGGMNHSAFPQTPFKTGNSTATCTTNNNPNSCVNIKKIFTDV

COc1c2ccoc2c(OCCOc2ccccn2)c2oc(C)cc(=O)c12
EC50 (Table 13, compounds of formula VI): > 10000 nM

COc1c(C(C)=O)c(O)c(OCc2ccc(C(=O)c3ccccc3)cc2)c2occc12
EC50 [1]: > 10000 nM

COc1c(C(C)=O)c(O)c(OCc2cccc(C(=O)O)c2)c2occc12
EC50 [1]: > 10000 nM
